Laboratory results: ChEMBL document CHEMBL5385960, “Screening of efficient salicylaldoxime reactivators for DFP and paraoxon-inhibited acetylcholinesterase” (2024)

By UniProt entry, the sequences of proteins in these tests, tags left out. Where a name states a change or a piece, a line headed by the entry shows the natural chain unless it says otherwise.
UniProt P22303: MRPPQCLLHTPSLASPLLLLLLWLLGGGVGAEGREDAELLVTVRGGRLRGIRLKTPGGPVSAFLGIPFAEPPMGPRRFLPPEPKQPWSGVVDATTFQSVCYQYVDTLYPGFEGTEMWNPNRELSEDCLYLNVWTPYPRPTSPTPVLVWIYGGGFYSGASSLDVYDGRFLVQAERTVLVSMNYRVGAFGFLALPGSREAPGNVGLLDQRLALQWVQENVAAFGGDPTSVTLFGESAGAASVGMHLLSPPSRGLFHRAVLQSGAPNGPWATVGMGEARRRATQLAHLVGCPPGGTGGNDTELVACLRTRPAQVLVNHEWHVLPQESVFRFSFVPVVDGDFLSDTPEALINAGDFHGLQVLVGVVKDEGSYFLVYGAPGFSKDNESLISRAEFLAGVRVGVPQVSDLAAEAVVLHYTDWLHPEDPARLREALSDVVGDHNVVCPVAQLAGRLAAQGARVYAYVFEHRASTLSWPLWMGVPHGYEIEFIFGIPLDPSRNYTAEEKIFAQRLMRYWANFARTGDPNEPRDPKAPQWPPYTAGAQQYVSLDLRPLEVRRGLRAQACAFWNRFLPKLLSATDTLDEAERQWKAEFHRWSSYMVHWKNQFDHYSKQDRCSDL

What was measured:
[1] = target: Acetylcholinesterase (Homo sapiens) (UniProt P22303); experiment: Reactivation of DFP-inhibited human erythrocyte AChE using acetylthiocholine as substrate at 10 uM preincubated with DFP for 15 mins followed by compound addition for 30 mins and further incubated with substrate for 20 mins by DTNB based Ellman's method relative to control; parameters: scale not given: the % may be the effect or the level left; settings: time 50.0 min
[2] = target: Acetylcholinesterase (Homo sapiens) (UniProt P22303); experiment: Reactivation of DFP-inhibited human erythrocyte AChE using acetylthiocholine as substrate at 100 uM preincubated with DFP for 15 mins followed by compound addition for 30 mins and further incubated with substrate for 20 mins by DTNB based Ellman's method relative to control; parameters: scale not given: the % may be the effect or the level left; settings: time 50.0 min
[3] = target: Acetylcholinesterase (Homo sapiens) (UniProt P22303); experiment: Reactivation of DFP-inhibited human erythrocyte AChE using acetylthiocholine as substrate assessed as reactivation rate constant preincubated with DFP for 15 mins followed by compound and substrate addition and measured every 5 to 10 mins for 120 mins by DTNB based Ellman's method; settings: filed as activator
[4] = target: Acetylcholinesterase (Homo sapiens) (UniProt P22303); experiment: Reactivation of paraoxon-inhibited human erythrocyte AChE using acetylthiocholine as substrate at 10 uM preincubated with paraoxon for 15 mins followed by compound addition for 30 mins and further incubated with substrate for 20 mins by DTNB based Ellman's method relative to control; parameters: scale not given: the % may be the effect or the level left; settings: time 50.0 min
[5] = target: Acetylcholinesterase (Homo sapiens) (UniProt P22303); experiment: Reactivation of paraoxon-inhibited human erythrocyte AChE using acetylthiocholine as substrate at 100 uM preincubated with paraoxon for 15 mins followed by compound addition for 30 mins and further incubated with substrate for 20 mins by DTNB based Ellman's method relative to control; parameters: scale not given: the % may be the effect or the level left; settings: time 50.0 min
[6] = target: Acetylcholinesterase (Homo sapiens) (UniProt P22303); experiment: Reactivation of paraoxon-inhibited human erythrocyte AChE using acetylthiocholine as substrate assessed as reactivation rate constant preincubated with paraoxon for 15 mins followed by compound and substrate addition and measured every 5 to 10 mins for 120 mins by DTNB based Ellman's method; settings: filed as activator
[7] = target: Acetylcholinesterase (Homo sapiens) (UniProt P22303); experiment: Reactivation of DFP-inhibited human erythrocyte AChE using acetylthiocholine as substrate assessed as second order reactivation rate constant preincubated with DFP for 15 mins followed by compound and substrate addition and measured every 5 to 10 mins for 120 mins by DTNB based Ellman's method; settings: filed as activator
[8] = target: Acetylcholinesterase (Homo sapiens) (UniProt P22303); experiment: Reactivation of paraoxon-inhibited human erythrocyte AChE using acetylthiocholine as substrate assessed as second order reactivation rate constant preincubated with paraoxon for 15 mins followed by compound and substrate addition and measured every 5 to 10 mins for 120 mins by DTNB based Ellman's …; settings: filed as activator
[9] = target: Acetylcholinesterase (Homo sapiens) (UniProt P22303); experiment: Reactivation of paraoxon-inhibited human erythrocyte AChE using acetylthiocholine as substrate assessed as fold change in second order reactivation rate constant preincubated with paraoxon for 15 mins followed by compound and substrate addition and measured every 5 to 10 mins for 120 mins by DTNB …

Compound	Activity ([1]; filed as activator)	Activity ([2]; filed as activator)	K [3]	Activity ([4]; filed as activator)	Activity ([5]; filed as activator)	K [6]	K [7]	K [8]	Activity [4]	Activity [1]	Activity [5]	fold change (FC) ([9]; filed as activator)	fold change (FC) [9]	Activity [2]
Cc1cc(/C=N/O)c(O)c(CN2CCC(c3ccncc3)CC2)c1	40.3%	72.5%	9.2 10^-3/min	41.6%	72.1%	11.5 10^-3/min	5.5 M⁻¹ s⁻¹	19.3 M⁻¹ s⁻¹	–	–	–	–	–	–
Cc1cc(/C=N/O)c(O)c(CN2CCC(c3ccc(F)cc3)CC2)c1	40.8%	48.3%	–	–	40.6%	–	–	–	11.3%	–	–	–	–	–
O/N=C/c1cc(Cl)cc(CN2CCN(c3ccncc3)CC2)c1O	–	86.7%	12.5 10^-3/min	75.6%	90.3%	31.2 10^-3/min	198 M⁻¹ s⁻¹	524 M⁻¹ s⁻¹	–	–	–	–	–	–
O/N=C/c1cc(Cl)cc(CN2CCN(c3ccccn3)CC2)c1O	–	50%	–	–	65.5%	–	–	–	39.5%	28.4%	–	–	–	–
Cc1cc(/C=N/O)c(O)c(CN2CCN(c3ccccc3F)CC2)c1	–	59.3%	–	–	–	–	–	–	6.1%	27.9%	18.5%	–	–	–
O/N=C/c1cc(Cl)cc(CN2CCN(c3ccccc3Cl)CC2)c1O	–	44.1%	–	–	–	–	–	–	8.1%	28.5%	10.9%	–	–	–
Cc1cc(/C=N/O)c(O)c(CN2CCN(c3ccncc3)CC2)c1	–	–	–	–	94.9%	–	532 M⁻¹ s⁻¹	914 M⁻¹ s⁻¹	–	–	–	5	–	–
O=[N+]([O-])c1ccc(N2CCN(Cc3cc(Cl)cc(/C=N/O)c3O)CC2)c(Cl)c1	48.2%	68.9%	12.2 10^-3/min	59.1%	80.7%	2.9 10^-3/min	6.67 M⁻¹ s⁻¹	110 M⁻¹ s⁻¹	–	–	–	–	–	–
O/N=C/c1cc(Cl)cc(CN2CCC(c3ccncc3)CC2)c1O	49.4%	81.3%	5.7 10^-3/min	57.1%	73.5%	26.9 10^-3/min	16.5 M⁻¹ s⁻¹	87.3 M⁻¹ s⁻¹	–	–	–	–	–	–
O/N=C/c1cc(Br)cc(CN2CCN(c3ccc(C(F)(F)F)cc3)CC2)c1O	–	40.8%	–	–	–	–	–	–	11.7%	20%	37.8%	–	–	–
Cc1cc(/C=N/O)c(O)c(CN2CCN(c3ccc([N+](=O)[O-])cc3)CC2)c1	58.7%	80.8%	2.6 10^-3/min	79%	97.4%	31.9 10^-3/min	22.2 M⁻¹ s⁻¹	409 M⁻¹ s⁻¹	–	–	–	–	> 2	–
Cc1cc(/C=N/O)c(O)c(CN2CCN(c3ccc(O)cc3)CC2)c1	–	46.9%	–	–	43.2%	–	–	–	20.3%	22%	–	–	–	–
O/N=C/c1cc(Cl)cc(CN2CCN(c3ccc(O)cc3)CC2)c1O	–	52.2%	–	–	–	–	–	–	22.6%	33.1%	35.6%	–	–	–
O/N=C/c1cc(Cl)cc(CN2CCN(c3ccc(C(F)(F)F)cc3)CC2)c1O	–	–	–	–	44.6%	–	–	–	21.5%	26.6%	–	–	–	37.5%
O/N=C/c1cc(Cl)cc(CN2CCC(c3ccc(F)cc3)CC2)c1O	47.6%	66.5%	2.6 10^-3/min	40.2%	75.9%	3.5 10^-3/min	2.67 M⁻¹ s⁻¹	2.83 M⁻¹ s⁻¹	–	–	–	–	–	–
O/N=C/c1cc(Br)cc(CN2CCN(c3ccncc3)CC2)c1O	45.8%	79.2%	12 10^-3/min	71.8%	86.2%	26.4 10^-3/min	164 M⁻¹ s⁻¹	257 M⁻¹ s⁻¹	–	–	–	–	–	–
O/N=C/c1cc(Cl)cc(CN2CCN(c3ccccc3)CC2)c1O	–	–	–	–	–	–	–	–	4.1%	5.8%	13.5%	–	–	25.1%
Cc1cc(/C=N/O)c(O)c(CN2CCN(c3ccc(C(F)(F)F)cc3)CC2)c1	–	63.5%	3.5 10^-3/min	41.7%	69%	2.5 10^-3/min	8.83 M⁻¹ s⁻¹	9.67 M⁻¹ s⁻¹	–	37.3%	–	–	–	–

Compound	Activity ([1]; filed as activator)	Activity ([2]; filed as activator)	K [3]	Activity ([4]; filed as activator)	Activity ([5]; filed as activator)	K [6]	K [7]	K [8]	Activity [4]	Activity [1]	Activity [5]	fold change (FC) ([9]; filed as activator)	fold change (FC) [9]	Activity [2]
O=[N+]([O-])c1ccc(N2CCN(Cc3cc(Cl)cc(/C=N/O)c3O)CC2)cc1	52.5%	77.2%	2.5 10^-3/min	78.8%	92.4%	25.2 10^-3/min	16.8 M⁻¹ s⁻¹	206 M⁻¹ s⁻¹	–	–	–	–	–	–
Cc1ccc(N2CCN(Cc3cc(C)cc(/C=N/O)c3O)CC2)cc1	–	54.3%	–	–	–	–	–	–	9.1%	28.5%	34.2%	–	–	–
Cc1cc(/C=N/O)c(O)c(CN2CCN(c3ccccc3)CC2)c1	–	–	–	–	–	–	–	–	4.7%	15.7%	9.5%	–	–	37.1%
Cc1cc(/C=N/O)c(O)c(CN2CCN(c3ccc([N+](=O)[O-])cc3Cl)CC2)c1	41%	59%	6.8 10^-3/min	53.9%	77.6%	12.3 10^-3/min	6 M⁻¹ s⁻¹	76 M⁻¹ s⁻¹	–	–	–	–	–	–
O/N=C/c1cc(Cl)cc(CN2CCN(c3ccccc3F)CC2)c1O	–	57.9%	–	–	–	–	–	–	13.7%	31.3%	25.2%	–	–	–
O/N=C/c1cc(Cl)cc(CN2CCN(c3ccc(Cl)cc3)CC2)c1O	–	–	–	–	–	–	–	–	3.3%	3.2%	3.2%	–	–	9.9%
O=[N+]([O-])c1ccc(N2CCN(Cc3cc(Br)cc(/C=N/O)c3O)CC2)cc1	54.8%	66.6%	3.5 10^-3/min	68.5%	83.8%	10.8 10^-3/min	21 M⁻¹ s⁻¹	196 M⁻¹ s⁻¹	–	–	–	–	–	–
O/N=C/c1cc[n+](COC[n+]2ccccc2/C=N/O)cc1	–	92.8%	7.3 10^-3/min	–	90.9%	26.5 10^-3/min	256 M⁻¹ s⁻¹	542 M⁻¹ s⁻¹	–	–	–	–	–	–
Cc1cc(/C=N/O)c(O)c(CN2CCN(c3ccccc3Cl)CC2)c1	–	40.5%	–	–	–	–	–	–	4.4%	17.8%	19.2%	–	–	–
Cc1cc(/C=N/O)c(O)c(CN2CCN(c3ccc(Cl)cc3)CC2)c1	–	–	–	–	–	–	–	–	5%	5.1%	5.1%	–	–	19.3%
Cc1cc(/C=N/O)c(O)c(CN2CCN(c3ccccn3)CC2)c1	–	56%	–	–	63.9%	–	–	–	30.7%	30.4%	–	–	–	–
O/N=C/c1cc(Cl)cc(CN2CCN(c3ccc(F)cc3)CC2)c1O	–	–	–	–	–	–	–	–	12%	27.3%	23.5%	–	–	34.7%
Cc1cc(/C=N/O)c(O)c(CN2CCN(c3ccc(Br)cc3)CC2)c1	–	–	–	–	–	–	–	–	23.4%	2.7%	36%	–	–	4.9%
Cc1ccc(N2CCN(Cc3cc(Cl)cc(/C=N/O)c3O)CC2)cc1	–	40%	–	–	–	–	–	–	9.9%	25.7%	15.3%	–	–	–
O/N=C/c1cc(Cl)cc(CN2CCN(c3ccc(Br)cc3)CC2)c1O	–	–	–	–	–	–	–	–	16.5%	2.1%	23.7%	–	–	4.5%
Cc1cc(/C=N/O)c(O)c(CN2CCN(c3ccc(F)cc3)CC2)c1	–	–	–	–	–	–	–	–	7.8%	19.4%	26.5%	–	–	38.3%
O/N=C/c1cc(F)cc(CN2CCN(c3ccncc3)CC2)c1O	–	53.2%	–	–	50.3%	–	–	–	34.4%	24.1%	–	–	–	–
